# This is a sample that favours compounds with a hit; in the whole collection about 2.1% have one here.
# PDI inh: inhibitors of human PDI, primary screen, biochemical, turbidity, single point, plate reader; Protein disulfide-isomerase (Homo sapiens), P07237; 350,000 tested, 0.052% active; inhibition, % at 10 µM; PDI insulin aggregation turbidity, A650, 90 min; AID 588391, 2011;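 active = mean inhibition across replicates of 30% or more, whatever share of single replicates reach that level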
# Rev-erbA mod: modulators of Rev-erb alpha DNA binding, primary screen, biochemical, FITC-DNA, fluorescence polarization, uHTS | AID 1259318, 2017 | 370,000 tested, 0.79% active | Rev-erbα–FITC-DNA binding, 90 min | activity, % at 10 µM | Nuclear receptor subfamily 1 group D member 1 (Homo sapiens), P20393;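 active = activity above about 14%, limit read from the data; passing the limit was not always enough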;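 also: 0% = DMSO wells with 35 nM protein and 100% = DMSO wells with 750 nM protein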
# UUG fidelity: yeast start codon fidelity modulation. S. cerevisiae UUG-firefly luciferase reporter, luminescence/redox ratio. activity score, % at 18.7 µM. 0.13% of 350,000 active;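 active = replicate mean at a twofold rise or more, about +100% in these data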;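 also: firefly luciferase made from a UUG start codon reports start codon fidelity; reporter light over untreated wells divided by growth signal over untreated wells; some hits fall short of that in this replicate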
# SMARCA2 act: SMARCA2 (BRM) function activators, primary screen, cell-based, luminescence, high throughput | MG213 cells, MMTV-luciferase reporter, dexamethasone, overnight | activation, % at 9.1 µM | 370,000 tested, 1% active; in the data active = activation above about 7.8%;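 also: 0% = vehicle wells and 100% = reference activator wells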
# ERp5 inh: inhibitors of ERp5-driven insulin aggregation, primary screen, biochemical, turbidity, absorbance 650 nm, single point; Protein disulfide-isomerase A6 (Homo sapiens), Q15084; 90 min; inhibition, % at 9.99 µM; 350,000 tested, 0.05% active; AID 651711, 2012;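 active = mean replicate inhibition above about 25%, with every replicate also reaching it, limit read from the data, passing the limit was not always enough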
# INS-1E GSIS act: GLuc luminescence reporter in INS-1E cells, primary screen for activators of glucose-dependent secretion of insulin. activation, % at 16.6 µM. INS-1E GLuc reporter insulin secretion, 2-3 h. 370,000 tested, 0.61% active;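 active = lowest replicate activation of at least 40%, so every replicate reaches that level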;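 also: 0% = median of neutral control wells and 100% = median of IBMX positive control wells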
# SMARCA2 conf: SMARCA2 (BRM) function activators, confirmation, cell-based, luminescence, triplicate; MG213 cells, MMTV-luciferase with dexamethasone, overnight; MG213 cells expressing E1A, Rb sequestered; DMSO wells 0%, reference activator 100%; shares compounds with SMARCA2 act; 3,500 tested, 30% active; AID 652260, 2013; activation, % at 9.1 µM;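 active = activation above its plate's cutoff, the mean activation of tested wells plus 3 SD, cut at about 7.9% in these data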
# GAL4-VP16 Luc: GAL4-VP16 luciferase reporter activation, counter-screen for SMARCA2 (BRM) activator project, cell-based, pG5luc, luminescence, high throughput; shares compounds with SMARCA2 act; HEK293 GAL4-VP16 pG5luc reporter; scaled: DMSO wells 0%, SAHA wells 100%; activation, % at 9.1 µM; 3,500 tested, 41% active; AID 686939, 2013;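 active = activation above the solvent-only control well mean plus 3 SD, averaged across control plates, cut at about 5.2% in these data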
# * hit, by the source's call; nt = not tested or not shown.
1) Cc1ccc(S(=O)(=O)N(C)Cc2ccc(C(=O)N/N=C3\CC(=O)CC(C)(C)C3)cc2)cc1
2) c1ccc(Cc2nnc3sc(C4COc5ccccc5O4)nn23)cc1 (stereo not drawn)
3) c1ccc(OCc2nnc3sc(C4COc5ccccc5O4)nn23)cc1 (stereo not drawn)
4) c1ccc(N=Nc2ccc(C3=NCCO3)cc2)cc1
5) Cc1ccc(Nc2nc3ccccc3[nH]2)nc1

Sequences of proteins named here, by UniProt entry; tags and fusion partners are left off.
Protein disulfide-isomerase (Homo sapiens), P07237, UniProt P07237, whole entry, looked up: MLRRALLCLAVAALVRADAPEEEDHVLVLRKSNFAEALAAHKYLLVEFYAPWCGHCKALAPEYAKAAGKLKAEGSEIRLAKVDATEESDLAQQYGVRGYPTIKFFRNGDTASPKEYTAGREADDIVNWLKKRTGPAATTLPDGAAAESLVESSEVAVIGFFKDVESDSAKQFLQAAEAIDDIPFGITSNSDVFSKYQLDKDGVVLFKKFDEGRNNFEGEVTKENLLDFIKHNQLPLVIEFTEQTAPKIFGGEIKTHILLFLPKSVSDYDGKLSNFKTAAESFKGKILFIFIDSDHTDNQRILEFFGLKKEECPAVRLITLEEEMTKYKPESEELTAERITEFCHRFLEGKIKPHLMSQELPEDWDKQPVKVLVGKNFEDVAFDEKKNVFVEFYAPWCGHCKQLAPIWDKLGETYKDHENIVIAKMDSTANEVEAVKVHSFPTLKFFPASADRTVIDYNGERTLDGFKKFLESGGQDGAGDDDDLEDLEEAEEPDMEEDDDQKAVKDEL

Assay by compound,1,2,3,4,5
PDI inh,-5,17,nt,-1,14
Rev-erbA mod,-1,-2,-5,2,2
UUG fidelity,nt,-15,-37,-51,-28
SMARCA2 act,10*,2,9.2*,10*,8.7*
ERp5 inh,nt,4,9,-1,nt
INS-1E GSIS act,-8,1,-4,-3,21
SMARCA2 conf,-1,nt,-2,9.2*,7
GAL4-VP16 Luc,0,nt,0,9.8*,19*

6) Cn1c(N2CCN(S(=O)(=O)c3ccc(Cl)cc3)CC2)nc2ccccc21
7) CCc1nc2ccccc2nc1N1CCN(S(=O)(=O)c2ccc(Cl)cc2)CC1
8) C[C@@H]1CN([C@@H](C)CO)C(=O)c2cc(NC(=O)Nc3ccccc3)ccc2O[C@H]1CN(C)C(=O)Nc1ccccc1
9) O=S(=O)(c1ccccc1)N1[C@@H]2CNC[C@H]1C2c1ccc(-c2ccccc2)cc1 (stereo partly drawn)
10) COc1cccc(CC(=O)Nc2nc(C)cs2)c1

Assay by compound,6,7,8,9,10
PDI inh,-2,-1,nt,nt,6
Rev-erbA mod,1,13,nt,nt,-6
UUG fidelity,-21,nt,-6,nt,-20
SMARCA2 act,-4,9.4*,nt,nt,8.6*
ERp5 inh,1,-4,-2,4,4
INS-1E GSIS act,-6,-15,11,-18,0
SMARCA2 conf,nt,-3,nt,nt,4
GAL4-VP16 Luc,nt,0,nt,nt,2

11) COCC(=O)Nc1ccc2c(c1)C(=O)N(C)[C@H]1CC[C@H](CC(=O)NCCc3ccncc3)O[C@@H]1CO2
12) CN(CC1CCCN(CCc2cccc(C(F)(F)F)c2)C1)C(=O)c1ccco1 (stereo not drawn)
13) CC(C)=CCNc1ncnc2c1c(C#N)cn2C1OC(CO)C(O)C1O (stereo not drawn)
14) Cc1ccc(SCCNC(=S)Nc2ccccc2)cc1
15) CN1C(=O)c2cc(NC(=O)C3CCCC3)ccc2OC[C@H]2O[C@@H](CC(=O)O)CC[C@H]21

Assay by compound,11,12,13,14,15
PDI inh,nt,12,-5,2,nt
Rev-erbA mod,nt,-3,-7,7,nt
UUG fidelity,nt,-8,nt,-25,-15
SMARCA2 act,nt,11*,41*,8.8*,nt
ERp5 inh,nt,2,11,nt,nt
INS-1E GSIS act,-7,-44,55,-18,2
SMARCA2 conf,nt,-5,59*,-5,nt
GAL4-VP16 Luc,nt,0,0,0,nt

16) O=C(C[C@H]1CC[C@H]2[C@@H](COC[C@H](O)CN2C(=O)c2cnccn2)O1)NCc1ccc(F)cc1
17) O=C1ON(Cc2ccccc2)C(c2ccccc2)N1c1ccccc1 (stereo not drawn)
18) O=C1C(c2ccccc2)c2ccccc2N1Cc1ccccc1 (stereo not drawn)
19) COc1ccc(OCc2ccc(/C=N\NC(=O)c3sccc3C)o2)cc1
20) COc1ccc2c(c1)c1nc3n(c(=O)c1n2CC(=O)Nc1ccccc1)CCCS3

Assay by compound,16,17,18,19,20
PDI inh,nt,7,5,-3,-4
Rev-erbA mod,nt,0,-4,3,10
UUG fidelity,-10,nt,-10,-8,-22
SMARCA2 act,nt,11*,-4,8.5*,11*
ERp5 inh,2,4,-4,7,1
INS-1E GSIS act,1,15,nt,7,23
SMARCA2 conf,nt,-2,nt,9.4*,1
GAL4-VP16 Luc,nt,0,nt,2,0

21) COc1ccc(NC(=O)Cn2c3ccc(OC)cc3c3nc4n(c(=O)c32)CCS4)cc1
22) C[C@@H]1CN([C@H](C)CO)C(=O)Cc2cc(NC(=O)CCC(F)(F)F)ccc2O[C@@H]1CN(C)S(=O)(=O)c1ccc(F)cc1
23) CN1CCN(C(=O)C[C@H]2CC[C@H]3[C@@H](COC[C@@H](O)CN3C(=O)C3CC3)O2)CC1
24) CCCN(C)C[C@H]1Oc2cc(-c3ccc(C)cc3)ccc2S(=O)(=O)N([C@H](C)CO)C[C@@H]1C
25) c1ccc(-c2ccc3ccccc3n2)cc1

Assay by compound,21,22,23,24,25
PDI inh,-10,nt,nt,nt,nt
Rev-erbA mod,16,nt,nt,nt,0
UUG fidelity,-6,6,nt,5,-9
SMARCA2 act,-1,nt,nt,nt,0
ERp5 inh,-11,4,-2,-1,-1
INS-1E GSIS act,-6,1,-4,11,0
SMARCA2 conf,nt,nt,nt,nt,nt
GAL4-VP16 Luc,nt,nt,nt,nt,nt

# Some of these compounds in order of their number in ERp5 inh, rising.
no.	molecule	PDI inh	Rev-erbA mod	UUG fidelity	SMARCA2 act	ERp5 inh	INS-1E GSIS act	SMARCA2 conf
6	Cn1c(N2CCN(S(=O)(=O)c3ccc(Cl)cc3)CC2)nc2ccccc21	-2	1	-21	-4	1	-6	nt
16	O=C(C[C@H]1CC[C@H]2[C@@H](COC[C@H](O)CN2C(=O)c2cnccn2)O1)NCc1ccc(F)cc1	nt	nt	-10	nt	2	1	nt
3	c1ccc(OCc2nnc3sc(C4COc5ccccc5O4)nn23)cc1 (stereo not drawn)	nt	-5	-37	9.2*	9	-4	-2

# (next part)
26) CNc1ccccc(-c2ccc3ccccc3n2)c1=O
27) Cc1nn(C)c(C)c1CNC(=O)Nc1ccc(Cl)cc1
28) CCNC(=O)C[C@H]1CC[C@@H]2[C@H](COc3ccc(NC(=O)Nc4cccc(C)c4)cc3C(=O)N2C)O1
29) CO[C@@H]1CN(C)C(=O)c2cc(NC(=O)c3cccc(F)c3)ccc2OC[C@H](C)N(C(C)=O)C[C@H]1C
30) Cn1cnc(S(=O)(=O)N2CC[C@@H]3[C@@H](CO)Nc4ccc(-c5ccccc5F)cc4[C@@H]32)c1

Assay by compound,26,27,28,29,30
PDI inh,-6,2,nt,nt,nt
Rev-erbA mod,6,3,nt,nt,nt
UUG fidelity,4,-28,5,nt,-5
SMARCA2 act,15*,9.5*,nt,nt,nt
ERp5 inh,nt,-1,-3,nt,nt
INS-1E GSIS act,8,-8,-3,10,-7
SMARCA2 conf,6,1,nt,nt,nt
GAL4-VP16 Luc,5.2*,6.4*,nt,nt,nt

31) CCN(CC)CCOc1ccc2c(c1)C(=NO)c1cc(OCCN(CC)CC)ccc1-2
32) Cc1nc(-c2ccccc2)nc2[nH]c(=O)n(-c3ccccc3)c(=O)c12
33) Cc1nc(-c2ccccc2)nc2[nH]c(C(C)C)cc(=O)c12
34) CCOC(=O)[C@]12CCCC=C1N(Cc1ccccc1)C(=O)[C@H](CC(=O)NCCc1ccccc1OC)C2
35) CCOC(=O)[C@]12CCCC=C1N(Cc1ccco1)C(=O)[C@H](CC(=O)NCCc1ccccc1OC)C2

Assay by compound,31,32,33,34,35
PDI inh,-8,29,15,nt,nt
Rev-erbA mod,1,-6,8,1,0
UUG fidelity,-6,-9,-39,nt,nt
SMARCA2 act,23*,11*,-2,-4,8.3*
ERp5 inh,nt,nt,nt,2,0
INS-1E GSIS act,8,nt,3,11,-34
SMARCA2 conf,76*,3,nt,nt,0
GAL4-VP16 Luc,0,6.3*,nt,nt,0

36) CCCCNC(=O)C[C@@H]1C[C@@]2(C(=O)OCC)CCCC=C2N(Cc2ccco2)C1=O
37) CCOC(=O)[C@]12CCC=C1N(Cc1ccccc1)C(=O)[C@H](CC(=O)NCCc1ccccc1OC)C2
38) COc1ccc(Cl)cc1C(=O)NNC(=O)c1cccs1
39) O=C(NNC(=O)c1cccs1)c1ccc(Cl)cc1

Assay by compound,36,37,38,39
PDI inh,nt,nt,5,-3
Rev-erbA mod,12,-3,0,-5
UUG fidelity,nt,nt,-1,nt
SMARCA2 act,-4,10*,12*,1
ERp5 inh,-1,-6,3,-5
INS-1E GSIS act,-11,-38,1,0
SMARCA2 conf,nt,-3,2,nt
GAL4-VP16 Luc,nt,-1,5,nt

# Entries of single compounds as entered above.
# COc1ccc(Cl)cc1C(=O)NNC(=O)c1cccs1 across the screens: PDI inh: 5; Rev-erbA mod: 0; UUG fidelity: -1; SMARCA2 act: 12*; ERp5 inh: 3; INS-1E GSIS act: 1; SMARCA2 conf: 2; GAL4-VP16 Luc: 5
# O=C(NNC(=O)c1cccs1)c1ccc(Cl)cc1 across the screens: PDI inh: -3; Rev-erbA mod: -5; UUG fidelity: nt; SMARCA2 act: 1; ERp5 inh: -5; INS-1E GSIS act: 0; SMARCA2 conf: nt; GAL4-VP16 Luc: nt

# From PubChem
